Results: patent US20090081219A1

The chains behind the UniProt entries cited, without tags or fusion partners. Residues count along the entry.
UniProt P01589, 22-213 limits assumed: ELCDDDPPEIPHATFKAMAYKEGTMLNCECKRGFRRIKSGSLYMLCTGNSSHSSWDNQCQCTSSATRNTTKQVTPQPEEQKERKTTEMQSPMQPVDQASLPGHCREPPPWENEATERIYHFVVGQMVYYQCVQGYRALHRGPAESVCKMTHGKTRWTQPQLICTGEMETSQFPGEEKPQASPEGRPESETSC

Molecular target: recombinant human CD25 (rhCD25), NS/0-expressed recombinant protein from R&D Systems (cat#223-2A/CF) (human) (UniProt P01589)
Assay: SPR, BIAcore 3000, 25 C; rhCD25 amine-coupled to CM-5 chip at low density, antibody as analyte, 1:1 Langmuir model

Zenapax (daclizumab, recombinant humanized IgG1 anti-CD25 antibody, Roche)
Kd: 152 pM
